Molecular target: human CD3 protein (KACTUS) (human)
Test: Fortebio BLI, antibody captured on AHC chip, human CD3 protein as analyte

Kd: 5.46 nM
koff: 0.00274 s⁻¹
kon: 501000 M⁻¹ s⁻¹
Substance: chimeric anti-CD3 antibody SP34 (chi)

Source: patent US20260085114A1
